The entries are a selection whose mix differs from that of the whole data set. Some salts and complexes are drawn in separate pieces, as the source files them; their charges need not balance. Activity calls are given as the source filed them.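 How the source made its calls: active means inhibition above about 30% (limit read from the data); inactive means the rest.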

Protein sequences, listed by entry. Tags and fused reporters are not part of them.
UniProt P63073, whole entry, looked up: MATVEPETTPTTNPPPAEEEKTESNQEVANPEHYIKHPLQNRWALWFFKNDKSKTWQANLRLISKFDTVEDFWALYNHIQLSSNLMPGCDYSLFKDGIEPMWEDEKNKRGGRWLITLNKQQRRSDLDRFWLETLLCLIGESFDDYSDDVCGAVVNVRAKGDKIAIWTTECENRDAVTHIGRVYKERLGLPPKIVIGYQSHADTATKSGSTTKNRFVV
UniProt Q04637, whole entry, looked up: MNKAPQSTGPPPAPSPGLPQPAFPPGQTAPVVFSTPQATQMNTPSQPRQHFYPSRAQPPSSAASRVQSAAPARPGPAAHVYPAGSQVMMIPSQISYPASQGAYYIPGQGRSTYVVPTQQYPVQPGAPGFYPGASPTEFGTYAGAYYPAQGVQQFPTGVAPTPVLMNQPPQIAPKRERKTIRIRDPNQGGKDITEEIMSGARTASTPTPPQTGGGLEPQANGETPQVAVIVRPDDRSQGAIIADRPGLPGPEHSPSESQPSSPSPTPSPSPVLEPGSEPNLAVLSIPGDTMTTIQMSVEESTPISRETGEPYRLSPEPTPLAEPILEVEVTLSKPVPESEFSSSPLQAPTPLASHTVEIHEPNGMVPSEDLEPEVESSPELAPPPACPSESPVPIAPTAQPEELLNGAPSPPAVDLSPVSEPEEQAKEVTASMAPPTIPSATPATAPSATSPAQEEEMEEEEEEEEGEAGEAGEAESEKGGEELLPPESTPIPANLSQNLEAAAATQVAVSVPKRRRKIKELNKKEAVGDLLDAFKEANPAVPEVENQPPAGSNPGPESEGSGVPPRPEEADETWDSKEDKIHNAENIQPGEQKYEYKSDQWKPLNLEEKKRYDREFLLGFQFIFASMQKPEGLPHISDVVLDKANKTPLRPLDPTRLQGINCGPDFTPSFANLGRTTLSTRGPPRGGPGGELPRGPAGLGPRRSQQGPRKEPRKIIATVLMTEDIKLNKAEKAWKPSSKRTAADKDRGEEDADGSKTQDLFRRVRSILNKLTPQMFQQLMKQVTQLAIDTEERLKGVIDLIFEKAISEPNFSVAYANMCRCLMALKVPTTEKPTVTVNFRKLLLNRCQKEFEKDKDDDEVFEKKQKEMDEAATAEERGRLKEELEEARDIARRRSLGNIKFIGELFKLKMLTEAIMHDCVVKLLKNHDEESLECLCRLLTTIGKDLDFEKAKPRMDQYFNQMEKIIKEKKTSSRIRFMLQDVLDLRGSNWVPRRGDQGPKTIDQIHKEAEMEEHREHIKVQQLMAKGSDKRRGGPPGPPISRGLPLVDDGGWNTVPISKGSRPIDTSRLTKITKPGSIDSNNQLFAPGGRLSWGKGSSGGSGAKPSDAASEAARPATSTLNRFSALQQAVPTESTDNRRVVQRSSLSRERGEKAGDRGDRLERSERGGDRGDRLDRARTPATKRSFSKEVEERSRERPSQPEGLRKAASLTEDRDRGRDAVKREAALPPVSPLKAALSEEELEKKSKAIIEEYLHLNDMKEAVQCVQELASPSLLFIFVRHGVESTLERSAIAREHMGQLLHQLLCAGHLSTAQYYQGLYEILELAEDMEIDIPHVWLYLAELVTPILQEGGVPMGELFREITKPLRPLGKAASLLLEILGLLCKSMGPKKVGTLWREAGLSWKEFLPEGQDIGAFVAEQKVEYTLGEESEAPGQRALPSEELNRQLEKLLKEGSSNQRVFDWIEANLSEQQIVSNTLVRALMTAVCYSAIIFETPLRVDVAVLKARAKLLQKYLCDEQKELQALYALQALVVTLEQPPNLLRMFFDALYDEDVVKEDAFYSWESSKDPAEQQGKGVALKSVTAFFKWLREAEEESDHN

Data on 82 compounds can be found in PubChem BioAssay AID782 (Emory University Molecular Libraries Screening Center, 2007).

The experiment concerns the target Eukaryotic translation initiation factor 4E (Mus musculus) + Eukaryotic translation initiation factor 4 gamma 1 (Homo sapiens) (UniProt P63073+Q04637). As to the kind of experiment: blockers of eIF4G binding by eIF4E – biochemical, uHTS, TR-FRET, eIF4GI fragment, primary screen (AID 782).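 Further: 0% = full FRET control wells and 100% = background wells lacking eIF4GI fragment.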 The settings on record: TR-FRET eIF4E-eIF4GI(517-606) binding, 2 h; at 21.7 µM; active compounds read high. (Time-resolved FRET reads energy transfer from a long-lived donor to a nearby acceptor.)
A word on the inhibition: it is the relative decrease from the control value, in per cent. As to `Cc1nc2ccc3ccccc3c2s1.O=[N+]([O-])c1cc([N+](=O)[O-])c(O)c([N+](=O)[O-])c1`, the inhibition was inactive: -0.8%.
For `O=[N+]([O-])c1cc([N+](=O)[O-])c(-n2nnc3ccccc32)c([N+](=O)[O-])c1`, the inhibition is inactive: 4.65%.
As for `COc1ccccc1OP(C)(=O)Nc1c(C)cccc1C` (configuration not stated), the figure is inactive: 8.87%.
As for `CN1CCCCC1COC(=O)C1(O)c2ccccc2CCc2ccccc21` (configuration not stated), the figure is inactive: 1.51%; as for `CP(=O)(Nc1ccc(SC(F)(F)F)cc1)Oc1ccccc1` (configuration not stated), inactive: -2.91%; as for `CCCOc1ccc(NP(C)(=O)Oc2ccc(Cl)cc2)cc1` (configuration not stated), inactive: 1.03%.
Next, `O=[N+]([O-])c1cc([N+](=O)[O-])c(Nc2nnnn2CCO)c([N+](=O)[O-])c1`: inactive: -11.4%; `CCOC(=O)C(CC)C1=NC(C)(C)Cc2ccccc21.O=[N+]([O-])c1cc([N+](=O)[O-])c(O)c([N+](=O)[O-])c1` (configuration not stated): inactive: -0.08%.
With `CC1=NCCc2c1[nH]c1ccccc21.O=[N+]([O-])c1cc([N+](=O)[O-])c(O)c([N+](=O)[O-])c1`, the inhibition was inactive: -3.25%.
Consider `O=C(O)c1cccc(Nc2c([N+](=O)[O-])cc([N+](=O)[O-])cc2[N+](=O)[O-])c1`, for which the inhibition is inactive: 2.92%.
Consider `Cc1ccc(C)c(NP(C)(=O)Oc2ccccc2)c1` (configuration not stated), for which the inhibition was inactive: 0.18%.
Next, `CP(=O)(Nc1cccc(Br)c1)Oc1ccccc1` (configuration not stated): inactive: 3.74%; `Cc1cc(C)cc(OP(C)(=O)Nc2ccccn2)c1` (configuration not stated): inactive: -1.29%.
As for `COc1ccccc1OP(C)(=O)Nc1cccc(Br)c1` (configuration not stated), the figure is inactive: -4.85%; as for `CCOC(=O)c1ccc(NP(C)(=O)Oc2cc(C)cc(C)c2)cc1` (configuration not stated), inactive: -3.83%.
For `Cc1cc(C)cc(OP(C)(=O)Nc2ccc(C)cc2C)c1` (configuration not stated), the inhibition was inactive: 8.12%.
`CCN(CC)CCCOC(=O)C(O)(c1ccccc1)c1ccccc1`: the inhibition was inactive: -3.08%.
As for `COc1ccccc1OP(C)(=O)Nc1ccc(C)cc1` (configuration not stated), the figure is inactive: -3.98%.
As for `Cc1ccc(NP(C)(=O)Oc2ccccc2)c(C)c1` (configuration not stated), the figure is inactive: 1.24%.
Next, `CCOC(=O)c1ccc(NP(C)(=O)Oc2ccccc2)cc1` (configuration not stated): inactive: -1.37%; `Cc1cc(C)cc(OP(C)(N)=O)c1` (configuration not stated): inactive: 1.41%; `COc1ccccc1OP(C)(=O)Nc1cc(Cl)ccc1C` (configuration not stated): inactive: -1.9%.
On to `COc1ccc(OP(C)(=O)Nc2cccc(F)c2)cc1` (configuration not stated), for which the inhibition is inactive: -1.93%.
As for `O=[N+]([O-])c1ccc2c(c1)C=Nc1ccccc1O2`, the figure is inactive: 0.48%; as for `CC(C)(C)c1ccc(OP(C)(=O)Nc2ccc(SC(F)(F)F)cc2)cc1` (configuration not stated), inactive: 10.9%.
`Cc1cccc(C)c1OP(C)(N)=O` (configuration not stated): the inhibition is inactive: -2.25%.
In the case of `CP(=S)(Nn1cnnc1)Oc1ccccc1` (configuration not stated), the inhibition is inactive: -2.09%.
As to `CP(=O)(Nc1ccccc1Br)Oc1ccccc1` (configuration not stated), the inhibition was inactive: -1.1%.
As for `COc1ccccc1OP(C)(=O)Nc1ccccc1` (configuration not stated), the figure is inactive: 0.65%; as for `CCOC(=O)c1ccc(NP(C)(=O)Oc2ccc(OC)cc2)cc1` (configuration not stated), inactive: 1.52%; as for `CCOP(C)(=S)SCC(=O)NC(C)C(=O)O` (configuration not stated), inactive: 0.42%.
As for `CP(=O)(Nc1ccccn1)Oc1ccc(Cl)cc1` (configuration not stated), the figure is inactive: 7.65%; as for `Cc1cccc(C)c1OP(C)(=O)Nc1ccc(SC(F)(F)F)cc1` (configuration not stated), inactive: 3.8%.
`CP(=O)(Nc1ccc(SC(F)(F)F)cc1)Oc1ccc(Cl)cc1` (configuration not stated): the inhibition is inactive: 2.29%.
As for `CP(=O)(Oc1ccccc1)OC(c1ccccc1)C(F)(F)F` (configuration not stated), the figure is inactive: -1.66%.
As for `CCc1ccc(OP(C)(=O)N2CCN(c3ccc([N+](=O)[O-])cc3)CC2)cc1` (configuration not stated), the figure is inactive: 2.2%.
Next, `CP(=O)(NC(=O)Nc1ccccc1)Oc1ccccc1` (configuration not stated): inactive: 4.92%.
Take `Cc1cc(C)cc(OP(C)(=O)Nc2ccc(SC(F)(F)F)cc2)c1` (configuration not stated): the inhibition is inactive: -1.6%.
As to `COc1ccccc1OP(C)(=O)Nc1ccccc1Br` (configuration not stated), the inhibition is inactive: -3.1%.
As for `CP(=O)(Nc1ccc(Cl)cc1)Oc1ccc(F)cc1` (configuration not stated), the figure is inactive: 6.74%.
Next, `CN(C)C(=O)c1c([N+](=O)[O-])cc([N+](=O)[O-])cc1[N+](=O)[O-]`: inactive: 1.54%; `CCN(CC)CC(O)COC(=O)C(O)(c1ccccc1)C1CCCCC1` (configuration not stated): inactive: 0.74%; `COc1ccc(OP(C)(=O)Nc2ccc(Br)cc2)cc1` (configuration not stated): inactive: 0.32%.
As for `O=C(OCCCN1CCCC1)C(O)(c1ccccc1)C1CCCCC1` (configuration not stated), the figure is inactive: 0.21%.
As for `CP(=O)(Oc1ccccc1)N1CCOC1=O` (configuration not stated), the inhibition is inactive: -1.98%.
As for `CCc1ccc(OP(C)(=O)Nc2cccnc2)cc1` (configuration not stated), the figure is inactive: -4.77%; as for `CCOC(=O)c1ccc(NP(C)(=O)Oc2ccc(Cl)cc2)cc1` (configuration not stated), inactive: 4.87%.
Next, `CP(=O)(OC12CC3CC(CC(C3)C1)C2)OC12CC3CC(CC(C3)C1)C2`: inactive: -0.11%.
For `Cc1nc2ccc3ccccc3c2o1.O=[N+]([O-])c1cc([N+](=O)[O-])c(O)c([N+](=O)[O-])c1`, the inhibition is inactive: 15.3%.
Turning to `CP(=O)(OCCOc1ccccc1)OCCOc1ccccc1`, the inhibition is inactive: 0.59%.
As for `CP(=O)(Nc1ccc(Cl)cc1Cl)Oc1ccccc1` (configuration not stated), the figure is inactive: 1.86%; as for `Cc1cc(C)cc(OP(C)(=O)Nc2cccc(C(F)(F)F)c2)c1` (configuration not stated), inactive: 2.24%.
Next, `COc1ccccc1OP(C)(=O)Nc1ccc(C)c(C)c1` (configuration not stated): inactive: 9.32%; `COc1ccc(OP(C)(=O)Nc2ccccc2Br)cc1` (configuration not stated): inactive: -3.85%.
As for `O=[N+]([O-])c1cc([N+](=O)[O-])c(Nc2ccccn2)c([N+](=O)[O-])c1`, the figure is inactive: -2.23%; as for `Cc1c(NP(C)(=O)Oc2ccc(C(C)C)cc2)c(=O)n(-c2ccccc2)n1C` (configuration not stated), inactive: 1.79%; as for `CP(=O)(Nc1ccccn1)Oc1ccccc1` (configuration not stated), inactive: -5.73%.
Take `COc1ccccc1OP(C)(=O)Nc1ccc(C)cc1C` (configuration not stated): the inhibition is inactive: 0.02%.
As for `CCc1ccc(OP(C)(=O)O)cc1`, the figure is inactive: 0.55%; as for `COc1ccccc1OP(C)(=O)Nc1ccc(Br)cc1` (configuration not stated), inactive: -2.82%.
Next, `COc1ccc(OP(C)(=O)Nc2ccccn2)cc1` (configuration not stated): inactive: -6.82%; `CN(C)CCOC(=O)C(O)(c1ccccc1)C1CCCC1` (configuration not stated): inactive: 6.27%.
Turning to `O=C(OC1CN2CCC1CC2)c1ccc([N+](=O)[O-])cc1` (configuration not stated), the inhibition is inactive: 4.63%.
`O=C(OCCN1CCN(CCOCc2ccccc2)CC1)C(O)(c1ccccc1)c1ccccc1`: the inhibition was inactive: 0.53%.
For `COc1ccc2c(c1O)-c1c(O)c(OC)cc3c1[C@H](C2)[N+](C)(C)CC3.O=[N+]([O-])c1cc([N+](=O)[O-])c([O-])c([N+](=O)[O-])c1[O-]`, the inhibition is inactive: -4.78%.
Next, `CP(=O)(Nc1ccccc1F)Oc1ccccc1` (configuration not stated): inactive: 1.68%; `CC(C)c1ccc(OP(C)(=O)Nc2ccc(SC(F)(F)F)cc2)cc1` (configuration not stated): inactive: 23%.
With `CCN(CC)CCCOC(=O)C(O)(c1ccccc1)C1CCCCC1` (configuration not stated), the inhibition was inactive: -5.24%.
For `CP(=O)(Nc1ccccc1)Oc1ccc(F)cc1` (configuration not stated), the inhibition was inactive: 0.25%.
Regarding `CCCCCOc1ccc(NP(C)(=O)Oc2ccc(Cl)cc2Cl)cc1` (configuration not stated), the inhibition is inactive: 7.58%.
As for `CCOC(=O)c1ccc(NP(C)(=O)Oc2ccc(F)cc2)cc1` (configuration not stated), the figure is inactive: 5.39%; as for `COc1ccc(OP(C)(=O)Nc2ccc(SC(F)(F)F)cc2)cc1` (configuration not stated), inactive: -0.15%.
As for `O=[N+]([O-])c1ccc(OP2(=O)COCCO2)cc1` (configuration not stated), the figure is inactive: -2.27%; as for `Cc1cc(-c2cccc3ccccc23)c(C)cn1.O=[N+]([O-])c1cc([N+](=O)[O-])c(O)c([N+](=O)[O-])c1`, inactive: 7.45%; as for `O=[N+]([O-])c1cc([N+](=O)[O-])c(NCC2CCS(=O)(=O)C2)c([N+](=O)[O-])c1` (configuration not stated), inactive: 3.64%.
`COc1ccc(OP(C)(=O)Nc2cccc(Br)c2)cc1` (configuration not stated): the inhibition is inactive: 0.78%.
As for `CN(C)CCOC(=O)C(O)(c1ccccc1)C1CCCCC1` (configuration not stated), the figure is inactive: 2.67%; as for `COc1ccc(NP(C)(=O)Oc2ccccc2OC)cc1` (configuration not stated), inactive: 1.72%; as for `CP(=O)(Nc1ccc2c(c1)OCCO2)Oc1ccccc1` (configuration not stated), inactive: 1.87%.
As for `Cc1ccccc1NP(C)(=O)Nc1ccccc1C`, the figure is inactive: -0.3%; as for `CP(=O)(Nc1ccc(SC(F)(F)F)cc1)Oc1ccc(F)cc1` (configuration not stated), inactive: -3.1%.
As to `CCOP(C)(=S)SCC(=O)NC(C)(CC)C(=O)O` (configuration not stated), the inhibition was inactive: -2.91%.
